From publication PMC4180209 (Arteriosclerosis, thrombosis, and vascular biology, 2014)

Assay: Clinical evaluation and platelet counts in M. fascicularis
Details: 1.93 mg/kg IM; on one occasion

## NCC(=O)Nc1cncc(-c2nn3c(=O)cc(N4CCNCC4)nc3s2)c1 [RUC-4]
  bleeding observation: slight amount of blood was found on the rectal thermal probe
